For assay [1], the system named is TNFα. Briefly: Cot Monocyte TNFα Cell Based Assay. To be noted: read-out: EC50 TNF, LPS-stimulated human monocytes.
The target in assay [2] is Human Cot (Homo sapiens (Human), UniProt P41279). The assay can be described thus: High Throughput Cot Biochemical Assay. The conditions noted are these: read-out: IC50 HTRF. For orientation: TR-FRET usually uses a lanthanide donor and a delayed reading to cut background.
Where [3] appears, read: Cot HTRF (TR-FRET) biochemical assay.
The mark [4] stands for this setting: TNFα TR-FRET, tested form: TFA salt.

The chains behind the UniProt entries cited, without tags or fusion partners. Residues count along the entry.
UniProt P41279, 30-397 limits assumed: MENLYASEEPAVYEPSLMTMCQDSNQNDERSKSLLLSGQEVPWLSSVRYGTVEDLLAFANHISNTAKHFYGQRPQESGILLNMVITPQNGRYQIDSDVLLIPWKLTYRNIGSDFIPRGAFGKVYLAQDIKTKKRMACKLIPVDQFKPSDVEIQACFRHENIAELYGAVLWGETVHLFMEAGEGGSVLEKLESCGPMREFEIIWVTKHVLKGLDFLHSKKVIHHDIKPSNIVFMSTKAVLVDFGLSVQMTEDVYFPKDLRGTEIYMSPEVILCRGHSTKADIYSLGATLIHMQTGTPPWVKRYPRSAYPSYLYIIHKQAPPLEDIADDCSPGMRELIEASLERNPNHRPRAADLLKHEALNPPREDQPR

SMILES strings stand for the structures. Where two headings read alike, the source gives them in different places.

Broadly, the EC50 is the concentration at which the effect is half-maximal. As a reminder, the IC50 is the concentration at which inhibition is half-maximal.

As to `CC(C)(C)CNc1c(C#N)cnc2c(Cl)cc(N[C@H](c3cn(C(C)(C)CF)nn3)c3cccc4cnccc34)cc12`, the EC50 in assay [1] (TNFα) amounted to 101 nM. In addition, in assay [2] (setting [3]), the IC50 stood at 14 nM.

As to `[2H][C@](Nc1cc(Cl)c2ncc(C#N)c(NCC(C)(C)C)c2c1)(c1cn(C2(C(F)F)CC2)nn1)c1cccnc1C`, in assay [1] (TNFα), the EC50 came to 87 nM. Also, the IC50 in assay [2] (setting [3]) turned out to be 2 nM.

Consider `N#Cc1cnc2c(Cl)cc(N[C@H](c3cn(CCO)nn3)c3cc(Br)cnc3Cl)cc2c1Nc1ccc(F)c(Cl)c1`, for which the 50% inhibitory concentration (IC50) in assay [2] (setting [3]) is 15 nM.

`CC(C)(C)OC(=O)N1CCC(n2cc([C@@H](Nc3cc(Cl)c4ncc(C#N)c(Nc5ccc(F)c(Cl)c5)c4c3)c3cccs3)nn2)CC1`: in assay [2] (setting [3]), the IC50 worked out at 282 nM.

Regarding `[2H][C@](Nc1cc(Cl)c2ncc(C#N)c(N[C@@H](CCC#N)c3ccccc3)c2c1)(c1ccc(F)nc1)c1cn(C2CC2)nn1`, in assay [1] (TNFα), the EC50 came out at 590 nM.

For the compound `CC(C)(C)N1CCC(n2cc([C@@H](Nc3cc(Cl)c4ncc(C#N)c(Nc5ccc(F)c(Cl)c5)c4c3)c3cnc(Cl)cc3Cl)nn2)CC1`, in assay [1] (TNFα), the EC50 amounted to 3750 nM.

For the compound `CC(C)(C)CNc1c(C#N)cnc2c(Cl)cc(N[C@H](c3cn(C(C)(C)C(F)F)nn3)c3cccc4cnccc34)cc12`, the EC50 in assay [1] (TNFα) was 283 nM. In addition, in assay [2] (setting [3]), the IC50 came out at 35 nM.

Take `CC(C)(C)CNc1c(C#N)cnc2c(C#N)cc(N[C@H](c3cn(C45CC(C4)C5)nn3)c3cccc4cnccc34)cc12`: the EC50 in assay [1] (TNFα) was 14 nM.

With `CC(C)(C)CNc1c(C#N)cnc2c(C#N)cc(N[C@H](c3cn(C(C)(C)C(F)F)nn3)c3cccc4ncccc34)cc12`, the EC50 in assay [1] (setting [4]) stood at 56 nM.

For `[2H][C@](Nc1cc(Cl)c2ncc(C#N)c(NCC(C)(C)C)c2c1)(c1cn(C2(C(F)F)CC2)nn1)c1cccnc1Cl`, the EC50 in assay [1] (TNFα) was 222 nM. Also, the IC50 in assay [2] (setting [3]) amounted to 5 nM.

For the compound `[2H][C@](Nc1cc(Cl)c2ncc(C#N)c(N[C@H](CCC#N)c3ccccc3)c2c1)(c1ccc(F)nc1)c1cn(C2CC2)nn1`, the EC50 in assay [1] (TNFα) is 37 nM. Moreover, the IC50 in assay [2] (setting [3]) stood at 2 nM.

Take `[2H][C@@](Nc1cc(Cl)c2ncc(C#N)c(Nc3cnc(F)c(F)c3)c2c1)(c1cn(C2CC2)nn1)c1cccnc1C`: the EC50 in assay [1] (TNFα) amounted to 174 nM. For the same compound, the IC50 in assay [2] (setting [3]) worked out at 5 nM.

Take `CC(C)(C)CNc1c(C#N)cnc2c(C#N)cc(N[C@H](c3cn(C45CC(C4)C5)nn3)c3cccc4ncccc34)cc12`: the EC50 in assay [1] (TNFα) came to 11 nM.

In the case of `N#Cc1cnc2c(Cl)cc(N[C@H](c3cn(C4COC4)nn3)c3cnc(Cl)cc3Cl)cc2c1Nc1ccc(F)c(Cl)c1`, the EC50 in assay [1] (TNFα) was found to be 666 nM. Moreover, the IC50 in assay [2] (setting [3]) is 86 nM.

Consider `CC(C)n1cc([C@@H](Nc2cc(Cl)c3ncc(C#N)c(Nc4ccc(F)c(Cl)c4)c3c2)c2ccc(Cl)nc2Cl)nn1`, for which the EC50 in assay [1] (TNFα) was determined as 565 nM.

With `CC(C)(C)CNc1c(C#N)cnc2c(Cl)cc(N[C@H](c3cn(C45CC(C4)C5)nn3)c3cccc4ncccc34)cc12`, the EC50 in assay [1] (TNFα) turned out to be 39 nM.

On to `[2H][C@@](Nc1cc(Cl)c2ncc(C#N)c(N[C@H](CC)c3ccccc3)c2c1)(c1cn(C2CC2)nn1)c1cccnc1C`, for which, in assay [1] (TNFα), the EC50 was 77 nM. Moreover, the IC50 in assay [2] (setting [3]) worked out at 2 nM.

As to `CC(C)(C)CNc1c(C#N)cnc2c(Cl)cc(N[C@H](c3cn(C45CC(C4)C5)nn3)c3cccc4cnccc34)cc12`, in assay [1] (TNFα), the EC50 is 39 nM.

For `CC(C)n1cc([C@@H](Nc2cc(Cl)c3ncc(C#N)c(Nc4ccc(F)c(Cl)c4)c3c2)c2cnc(Cl)cc2Cl)nn1`, in assay [1] (TNFα), the EC50 stood at 1100 nM.

As for `CC(C)(C)CNc1c(C#N)cnc2c(C#N)cc(N[C@H](c3cn(C(C)(C)C(F)F)nn3)c3cccc4cnccc34)cc12`, the EC50 in assay [1] (TNFα) was 61 nM.

Regarding `Cc1nc(F)ccc1[C@H](Nc1cc(Cl)c2ncc(C#N)c(NCC(C)(C)C)c2c1)c1nnn2c1CCCC2`, the EC50 in assay [1] (setting [4]) worked out at 169 nM. Also, the IC50 in assay [2] (Cot HTRF (TR-FRET KinEASE) biochemical assay, 400 μM ATP, tested form: TFA salt) is 10 nM.

As for `[2H][C@](Nc1cc(Cl)c2ncc(C#N)c(N[C@H](CCO)c3ccccc3)c2c1)(c1cccnc1)c1cn(C2CC2)nn1`, the EC50 in assay [1] (TNFα) is 147 nM. Also, the IC50 in assay [2] (setting [3]) was determined as 6 nM.

Turning to `[2H][C@@](Nc1cc(Cl)c2ncc(C#N)c(N[C@H](CC)c3ccccc3)c2c1)(c1cn(C2CC2)nn1)c1ccc(F)nc1C`, in assay [1] (TNFα), the EC50 worked out at 56 nM. The IC50 in assay [2] (setting [3]) is 2 nM.

Turning to `[2H][C@@](Nc1cc(Cl)c2ncc(C#N)c(Nc3cnc(F)c(F)c3)c2c1)(c1c[nH]nn1)c1cccnc1C`, in assay [1] (TNFα), the EC50 turned out to be 1140 nM.

As to `[2H][C@@](Nc1cc(Cl)c2ncc(C#N)c(N[C@H](CC)c3ccccc3)c2c1)(c1c[nH]nn1)c1cccnc1C`, the EC50 in assay [1] (TNFα) was determined as 221 nM. Also, the IC50 in assay [2] (setting [3]) is 4 nM.

Take `[2H][C@](Nc1cc(Cl)c2ncc(C#N)c(NCC(C)(C)C)c2c1)(c1cn(C2(C(F)F)CC2)nn1)c1cccnc1F`: the EC50 in assay [1] (TNFα) stood at 277 nM. Moreover, the IC50 in assay [2] (setting [3]) came to 5 nM.

In the case of `[2H][C@@](Nc1cc(Cl)c2ncc(C#N)c(NCC(C)(C)C)c2c1)(c1cn(C2CC2)nn1)c1cccnc1C`, in assay [1] (TNFα), the EC50 was 97 nM. Moreover, the IC50 in assay [2] (setting [3]) is 4 nM.
